# Antibody variant affinities, Ab-95 light chain, assay 2

From the AlphaSeq antibody data of Engelhart et al. 2022 (doi:10.1038/s41597-022-01779-4), copy in the FLAb collection.

All variants were tested on one target, the spike HR2 peptide PDVDLGDISGINAS (SARS-CoV-2).

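Phage display of a naive human antibody library on the peptide gave the parent. AAYL52 was designed without a model: most single CDR substitutions and a random sample of double and triple ones. AlphaSeq pools MATa yeast showing the antibodies with MATalpha yeast showing the peptide. After mating in shaken culture at 30 °C for 16 h, diploids were selected and their barcode pairs sequenced. Scores were corrected for input abundance and mapped to Kd with protein pairs of known affinity run in the same pool. Mating was done three times.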

Each scFv is VH, a (GGGGS)3 linker, VL, as in the parent Ab-95, and differs from it in the CDRs of the light chain only.
VH: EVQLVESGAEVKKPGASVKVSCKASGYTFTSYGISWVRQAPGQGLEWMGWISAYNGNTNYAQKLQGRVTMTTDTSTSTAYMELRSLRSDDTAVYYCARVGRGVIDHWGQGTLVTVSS
VL: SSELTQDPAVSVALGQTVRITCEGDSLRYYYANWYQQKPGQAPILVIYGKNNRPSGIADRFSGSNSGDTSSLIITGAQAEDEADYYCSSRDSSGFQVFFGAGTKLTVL

Changes read parent residue, position, new residue, counted from the first residue of the VL shown. Values are log10 of the apparent Kd in nM; lower means stronger binding. Replicates are averaged; those with no signal do not enter the mean. "nd" means that the variant was in the library but no mating with the target was seen in that replicate; the authors take this as a sign of poor binding, and no number exists. Background: pairings of library AAYL52 with three empty control strains gave a value in 28% of cases (median 3.91, 5th percentile 2.90). Values in that range, when seen in few replicates, are hard to tell from nonspecific mating. Also given: how often the same scFv was detected with the empty control strains, with their mean in brackets.

| changes | log10 Kd (nM) by replicate | log10 Kd (nM), mean | control signals |
|---|---|---|---|
| G24C+D25H+S26Q | 2.21 / 1.98 / 3.17 | 2.46 | 2 of 9 (3.92) |
| G49T+R53H+G94A | 4.23 / nd / nd | 4.23 | 0 of 9 |
| Y31G+N51D+S55C | 1.66 / 1.66 / 1.22 | 1.51 | 5 of 9 (3.88) |
| Y29Q+S89N | 2.55 / 3.11 / 4.10 | 3.25 | 3 of 9 (4.17) |
| S26C+Y29L+K50T | 4.23 / nd / nd | 4.23 | 2 of 9 (3.74) |
| Y31I+S88K+R90E | nd / nd / nd | nd | 0 of 9 |
| E23R+Y29V+R90I | 2.56 / 2.62 / 2.89 | 2.69 | 1 of 9 (4.03) |
| L27S+N51D | 3.91 / 3.06 / nd | 3.49 | 4 of 9 (4.21) |
| D25E+N33C+S92I | nd / nd / nd | nd | 3 of 9 (3.39) |
| G24K+Y30T+F98Y | 3.28 / 4.53 / 4.19 | 4.00 | 3 of 9 (4.27) |
| E23K+S93V | 3.24 / 3.93 / 3.37 | 3.51 | 5 of 9 (4.36) |
| G49V+N52L+R53N | 4.55 / nd / 3.13 | 3.84 | 1 of 9 (4.00) |
| Y29D+S89K+S93V | 3.25 / 2.95 / 1.94 | 2.71 | 1 of 9 (3.80) |
| Y29G+G49T+F98M | 3.43 / 3.58 / nd | 3.50 | 2 of 9 (4.78) |
| L27A+Y30D | 2.66 / 2.63 / 2.55 | 2.61 | 3 of 9 (3.52) |
| D25G+K50R+S93N | 3.07 / 2.39 / 2.28 | 2.58 | 3 of 9 (3.31) |
| R53S+G94D+Q96G | 2.80 / 2.91 / 4.03 | 3.25 | 0 of 9 |
| Y30P+K50R+D91N | 3.18 / 2.42 / 3.84 | 3.14 | 0 of 9 |
| R28F+N33A+R53E | 4.11 / nd / 4.19 | 4.15 | 1 of 9 (3.42) |
| S89M+S92P+F98C | 2.54 / 3.08 / 2.21 | 2.61 | 3 of 9 (3.84) |
| Y31G+A32Q+R90E | 3.30 / 4.69 / nd | 3.99 | 7 of 9 (4.16) |
| Y30Q+Y31E+R53F | 2.01 / 1.65 / 1.18 | 1.61 | 3 of 9 (4.16) |
| L27E+Q96R+F98I | 3.61 / 4.88 / 3.36 | 3.95 | 8 of 9 (3.90) |
| E23K+L27A+F98P | 4.30 / nd / nd | 4.30 | 1 of 9 (4.04) |
| E23V+P54N+S92I | 2.97 / 2.90 / 2.54 | 2.80 | 1 of 9 (3.31) |
| G49Q+K50C+N51Q | nd / nd / nd | nd | 1 of 9 (3.31) |
| S26K+F98P | nd / nd / 4.80 | 4.80 | 3 of 9 (4.53) |
| E23S+N51P+S93Y | 3.25 / nd / nd | 3.25 | 0 of 9 |
| G49L+S88L | nd / 4.13 / 3.49 | 3.81 | 6 of 9 (3.57) |
| R28K+G49H+V97S | 3.66 / 2.94 / 3.21 | 3.27 | 4 of 9 (3.96) |
| D91T+F95V+F98K | nd / 2.71 / 2.53 | 2.62 | 1 of 9 (3.63) |
| Y30P+K50Q+P54N | 2.77 / 2.50 / 2.78 | 2.69 | 6 of 9 (4.06) |
| D25P+N33I+N52H | 4.42 / 5.70 / nd | 5.06 | 7 of 9 (4.03) |
| L27Y+G94V+F95T | 4.64 / nd / 4.28 | 4.46 | 2 of 9 (4.17) |
| S26E+N33P+S88F | 3.70 / nd / 2.86 | 3.28 | 2 of 9 (3.69) |

The 4 strongest on average among those seen in every replicate, once more:

changes	log10 Kd (nM) by replicate	log10 Kd (nM), mean	control signals
Y31G+N51D+S55C	1.66 / 1.66 / 1.22	1.51	5 of 9 (3.88)
Y30Q+Y31E+R53F	2.01 / 1.65 / 1.18	1.61	3 of 9 (4.16)
G24C+D25H+S26Q	2.21 / 1.98 / 3.17	2.46	2 of 9 (3.92)
D25G+K50R+S93N	3.07 / 2.39 / 2.28	2.58	3 of 9 (3.31)

In this assay the parent's reference entry averaged 2.31; its copy inside this library read 2.25.